Assay results taken from ChEMBL document CHEMBL1938384, “Lysine demethylases inhibitors” (J Med Chem, 2011).

Sequences of proteins named here, by UniProt entry; tags and fusion partners are left off.
UniProt P21397, whole entry: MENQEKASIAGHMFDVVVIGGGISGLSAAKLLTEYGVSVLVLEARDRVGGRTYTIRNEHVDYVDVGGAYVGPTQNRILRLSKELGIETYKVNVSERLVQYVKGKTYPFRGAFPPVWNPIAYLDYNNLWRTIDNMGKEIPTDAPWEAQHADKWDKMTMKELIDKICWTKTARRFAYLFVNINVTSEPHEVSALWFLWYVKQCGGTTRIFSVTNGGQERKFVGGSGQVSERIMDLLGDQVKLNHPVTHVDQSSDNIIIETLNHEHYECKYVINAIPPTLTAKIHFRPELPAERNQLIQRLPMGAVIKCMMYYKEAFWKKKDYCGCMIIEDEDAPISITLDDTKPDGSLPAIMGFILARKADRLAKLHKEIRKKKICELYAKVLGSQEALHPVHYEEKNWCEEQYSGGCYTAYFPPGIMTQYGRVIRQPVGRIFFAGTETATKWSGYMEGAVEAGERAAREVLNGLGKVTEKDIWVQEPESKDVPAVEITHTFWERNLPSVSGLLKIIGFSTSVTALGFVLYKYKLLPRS

Molecular target: Amine oxidase [flavin-containing] A (Homo sapiens, UniProt P21397)

Question: For NC1CC1c1ccc(NC(=O)C(Cc2ccccc2)NC(=O)OCc2ccccc2)cc1 (stereo unspecified), which Ki is on record?
Answer: 1200 nM
